Amino acid sequences for entries named in this document (tags omitted). A change or cut given only in a name is not applied to a line headed by its entry.
UniProt P35346: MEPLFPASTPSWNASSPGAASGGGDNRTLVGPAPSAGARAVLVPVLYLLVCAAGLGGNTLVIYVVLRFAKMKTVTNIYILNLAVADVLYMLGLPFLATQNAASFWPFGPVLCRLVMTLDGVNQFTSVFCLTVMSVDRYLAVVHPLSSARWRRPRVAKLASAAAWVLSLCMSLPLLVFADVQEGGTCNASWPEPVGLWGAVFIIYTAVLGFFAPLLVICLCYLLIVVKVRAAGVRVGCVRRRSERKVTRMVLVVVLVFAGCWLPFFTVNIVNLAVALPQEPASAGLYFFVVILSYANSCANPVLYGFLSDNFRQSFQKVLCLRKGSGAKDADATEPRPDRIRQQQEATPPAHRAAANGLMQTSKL
UniProt P41143, whole entry: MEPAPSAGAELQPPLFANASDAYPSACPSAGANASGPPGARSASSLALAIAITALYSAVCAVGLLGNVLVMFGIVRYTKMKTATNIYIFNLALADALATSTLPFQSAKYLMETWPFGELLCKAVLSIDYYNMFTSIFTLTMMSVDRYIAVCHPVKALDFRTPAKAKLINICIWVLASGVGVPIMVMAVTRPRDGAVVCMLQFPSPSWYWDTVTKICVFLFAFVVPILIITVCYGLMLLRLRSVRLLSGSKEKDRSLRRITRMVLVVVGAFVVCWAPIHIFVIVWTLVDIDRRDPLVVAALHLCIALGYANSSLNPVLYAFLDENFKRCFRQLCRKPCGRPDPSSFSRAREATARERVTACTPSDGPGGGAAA

In US20010053848A1, “Hetero-oligomeric G protein-coupled receptors as novel drug targets” (priority 2000, published 2001):

What was measured:
[1] = target: T1, DOR and SSTR5 hetero-oligomer (Homo sapiens, UniProt P35346+P41143); assay: Inhibition of FSK-stimulated cAMP, hSSTR5/DOR cotransfectants; assay type: cell-based; settings: agonist alone or both agonists simultaneously
T1 construct: expressed in transfected cells

wild type hSSTR5 and DOR = wild type hSSTR5 and DOR (Homo sapiens, UniProt P35346+P41143)

Question: [D-Pen^2,5]-Enkephalin [DPDPE] was tested. Which “maximum inhibition of FSK-stimulated cAMP” value [1] did it give?
Answer: Its value is 32±3%.

Question: And the “effect on inhibition of radioligand binding induced by GTPγS” value (wild type hSSTR5 and DOR; [125I] LTT SST-28 radioligand)?
Answer: Its value is “potentiated”.

Question: What about the G-protein coupling efficiency (wild type hSSTR5 and DOR; enhancement by DOR ligand) of the same substance?
Answer: The G-protein coupling efficiency was 2 fold.
